From patent publication US9040563B2, “Dual inhibitors of farnesyltransferase and geranylgeranyltransferase I” (H. Lee Moffitt Cancer Center and Research Institute, Inc., priority 2010, dated 2015)

Molecular target: hFTase (Homo sapiens, UniProt P49354+P49356)
Experiment: In vitro hFTase inhibition: incorporation of [3H]FPP into recombinant H-Ras-CVLS
Type: biochemical
Settings: GGTase-I IC50 / hFTase IC50

## Cc1ccc(CN(CCN(Cc2cncn2C)c2ccc(C#N)cc2)S(=O)(=O)c2cn(C)cn2)cc1 [1aq]
  selectivity (ratio of GGTase-I to FTase IC50s): 1.6
